US20040018593A1 (published 2004)

Chains of the proteins cited; added tags and fusions are not shown. A line that says so, or that is headed by a name, gives the form on record, which may keep a tag or linker.
RELP/human IgG1 Fc fusion protein, one chain, as listed by the source limits assumed: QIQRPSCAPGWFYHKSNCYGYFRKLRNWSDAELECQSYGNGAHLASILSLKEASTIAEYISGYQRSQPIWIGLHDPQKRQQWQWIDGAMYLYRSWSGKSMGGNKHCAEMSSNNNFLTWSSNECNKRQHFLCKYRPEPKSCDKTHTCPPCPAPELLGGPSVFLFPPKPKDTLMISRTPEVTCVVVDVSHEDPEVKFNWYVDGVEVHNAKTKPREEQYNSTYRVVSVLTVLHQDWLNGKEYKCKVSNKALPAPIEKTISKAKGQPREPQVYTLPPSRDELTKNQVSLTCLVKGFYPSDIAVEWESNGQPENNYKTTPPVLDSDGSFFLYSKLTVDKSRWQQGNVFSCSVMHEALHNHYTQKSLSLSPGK

B1: CNTO 4164 (antibody, IgG1, V domains shown)
VH: EIQLQQSGTELVRPGALVKLSCKASGFNIRDYYINWLKQRPEQGLEWIGWIDPENDDTVFDPKFQDKAILTADTSSNTVCLQLSSLTSEDTSVYYCAIKGNYYDGGAFANWGQGTLVTVSA
VL: DIQLTQSPASLSVSVGETVTITCRASENIYSNFAWYQQTQGKSPQLLVHGATSLADGVPSRFSGSGSGTQYFLRIDSLQSEDLGIYYCQHFWNTPYTFGGGTKLEIK
notes: Tested as undiluted hybridoma supernatant; also called anti-RELP Mab; RELP specific mab
B2: CNTO 338 (antibody, IgG1, V domains shown)
VH: EVQLQQSGAELVRPGASVRLSCTVSGFNIEDDYIHWVKQRPEQGLEWIGWIDPETGNTQYASKFQGKATATSDTSSSTVYVHLSSLTSEDTAVYYCTTTSYYGSDEFVYWGQGTLVTVSA
VL: DIVLTQSPATLSVTPGDGVSLSCRASQSINNNLHWYHQKSHGSPRLLIKYSSQSISGIPSRFSGSGSGTDFTLTINNVETEDFGLYFCQQSNSWPLTFGAGTKLELK
notes: Tested as undiluted hybridoma supernatant; As printed they begin with Met and seem to include the leader peptide, but no cleavage site is stated; also called anti-RELP Mab; RELP specific mab

Molecular target: T1, RELP/human IgG1 Fc fusion protein
T1 construct: Secreted from SP2/0 cells and purified on protein A. Coated at 10 ug/mL on EIA plates; also called RELP fusion protein; RELP-Fc fusion protein
Test: solid phase EIA, hybridoma supernatant on coated RELP fusion protein
Description: To assess serum titers or supernatant activity, solid phase EIA assays were performed as follows: RELP fusion protein, human Fe or cA2 IgG1 Fe fusion protein (negative construct control) were coated at 10 μg/mL in 10 mM carbonate buffer, pH 9.6 on to 96-well EIA plates (Nunc) and incubated for overnight at 4° C. The plates were then washed three times in 0.15 M saline with 0.02% v/v Tween 20, the wells were then blocked with 1% (w/v) BSA (Sigma) in PBS, 200 μL/well for 1 hour at 37° C. Plates were used immediately or frozen at −20° C. for future use.
To screen the mouse immune sera for titers or growth positive hybridomas for specific reactivity, the diluted sera or undiluted supernatants from the growth positive hybridomas were incubated on all sets of coated plates at 50 μL/well at 37° C. for 1 hour. The plates were washed and then probed with 50 μL/well HRP-labeled goat anti-mouse IgG Fc specific antibody (lot #105H4819, Sigma) diluted 1:20,000 in 1% BSA-PBS for 30 minutes at 37° C. The plates were again washed and 100 μL/well of citrate-phosphate substrate solution (0.1M citric acid, 0.2M sodium phosphate, 0.01% H₂O₂, 1 mg/mL OPD (Sigma) was added for approximately 15 minutes at RT. The reaction was stopped by the addition of 25 μL/well, 4N H₂SO₄. The OD's were read at 490 nm by an automated plate spectrophotometer (Titertek).

Row | Binder | binding result
1 | B1 | binds
2 | B2 | binds
